Test system: PIGA-null TF-1 cells
Experiment: Modified Ham test (WST-1 cell viability after serum exposure)
Conditions: for cell killing (% non-viable cells) by HELLP serum mixed with eculizumab-containing serum: HELLP/ECU sera 50-50%, 25-75%, 12.5-87.5%, total serum 20%, versus HELLP serum alone, p=0.007

B1: eculizumab (antibody, chains of the INN, looked up)
heavy: QVQLVQSGAEVKKPGASVKVSCKASGYIFSNYWIQWVRQAPGQGLEWMGEILPGSGSTEYTENFKDRVTMTRDTSTSTVYMELSSLRSEDTAVYYCARYFFGSSPNWYFDVWGQGTLVTVSSASTKGPSVFPLAPCSRSTSESTAALGCLVKDYFPEPVTVSWNSGALTSGVHTFPAVLQSSGLYSLSSVVTVPSSNFGTQTYTCNVDHKPSNTKVDKTVERKCCVECPPCPAPPVAGPSVFLFPPKPKDTLMISRTPEVTCVVVDVSQEDPEVQFNWYVDGVEVHNAKTKPREEQFNSTYRVVSVLTVLHQDWLNGKEYKCKVSNKGLPSSIEKTISKAKGQPREPQVYTLPPSQEEMTKNQVSLTCLVKGFYPSDIAVEWESNGQPENNYKTTPPVLDSDGSFFLYSRLTVDKSRWQEGNVFSCSVMHEALHNHYTQKSLSLSLG
light: DIQMTQSPSSLSASVGDRVTITCGASENIYGALNWYQQKPGKAPKLLIYGATNLADGVPSRFSGSGSGTDFTLTISSLQPEDFATYYCQNVLNTPLTFGQGTKVEIKRTVAAPSVFIFPPSDEQLKSGTASVVCLLNNFYPREAKVQWKVDNALQSGNSQESVTEQDSKDSTYSLSSTLTLSKADYEKHKVYACEVTHQGLSSPVTKSFNRGEC
modifications: in PNH patient serum
B1 was tested, and the “cell killing (% non-viable cells) by HELLP serum mixed with eculizumab-containing serum” value was “significant decrease of cell killing”, the “cell killing (% non-viable cells) by HELLP serum mixed with eculizumab-containing serum” value (listed as Eculizumab) was “significantly lower” and the “cell killing by serum of aHUS patients on eculizumab” value (serum diluted 1:1 and 1:2) was “almost completely abrogated”. For the same molecule, the “cell killing by eculizumab-containing serum alone” value (serum from a PNH patient within 60 minutes of eculizumab infusion) was “no increase in cell killing”.

From patent US11499964B2, “Assay to diagnose and treat disorders of the alternative pathway of complement activation” (THE JOHNS HOPKINS UNIVERSITY, priority 2015, dated 2022)
